Assay results reported in paper PMC8279520 (Aging and Disease, 2021).

Experiments:
[1] = target: T1, Aβ42 (UniProt P05067 672-713); assay: cross-linking; mixtures of GAPDH, Aβ42, tTG and cystamine incubated (12 hours by the results, 18 h at 37°C by the methods), SDS gel and Western blot with anti-Aβ antibody; settings: both partners purified
T1 construct: amyloid-β peptide 1-42, cut product of the amyloid precursor protein; numbers count on: the Aβ peptide; also called amyloid-β 42; non-labeled Aβ42; source: bought: GeneCust (Switzerland)

[2] = target: T2, biotinylated Aβ42 (UniProt P05067 672-713, biotin (position not given)); assay: ELISA; GAPDH immobilised on a 96-well plate; 30 μg/mL biotinylated Aβ42 for 1.5 h in 20 mM Tris HCl pH 7.5, 20 mM NaCl, 10 mM CaCl2; with or without tTG and cystamine; avidin-peroxidase detection; settings: both partners purified
T2 construct: amyloid-β peptide 1-42, cut product of the amyloid precursor protein; numbers count on: the Aβ peptide; also called biotinylated amyloid-β 42; source: bought: GeneCust (Switzerland)

- binding result [1]: binds
- binding result [2]: binds
B1: glyceraldehyde-3-phosphate dehydrogenase (GAPDH) isolated from rabbit muscle (enzyme)
chain: not shown
notes: glyceraldehyde-3-phosphate dehydrogenase, rabbit muscle; also called purified GAPDH; source: isolated from rabbit muscle (provided by Dr. Muronetz)
